In patent US10189836B2, “Therapeutic compounds, compositions and methods of use thereof” (Genentech, Inc., priority 2015, dated 2019) one finds IC50 data, which are given here for five compounds.

SMILES strings stand for the structures. Read-outs that look alike come from different tables or passages of the source.

For orientation: IC50 means the concentration at which inhibition is half-maximal.

In test [1] the test system is JAK1-dependent STAT6 phosphorylation downstream of IL-13 stimulation in BEAS-2B cells. As to the kind of experiment: JAK1 pathway assay in BEAS-2B cells (IL-13-pSTAT6). The following applies: Homo sapiens, read-out: IL13-pSTAT6 BEAS2B IC50.
Test [2] shares this test system.

Consider `CN1CCN(C(=O)Cn2cc(Nc3nc4c(C5=CC6CCC(C5)N6C(=O)OCC(F)(F)F)cccn4n3)cn2)CC1` (centres unmarked) [Example 7, 2,2,2-trifluoroethyl 3-[2-[[1-[2-(4-methylpiperazin-1-yl)-2-oxo-ethyl]pyrazol-4-yl]amino]-[1,2,4]triazolo[1,5-a]pyridin-8-yl]-8-azabicyclo[3.2.1]oct-3-ene-8-carboxylate], for which the concentration for half-maximal inhibition (IC50) in test [1] came to 181 nM.

As to `CN1CCN(C(=O)Cn2cc(Nc3nc4c(N5CC6CCC(C5)N6S(=O)(=O)CC#N)cccn4n3)cn2)CC1` [Example 183, 2-[[3-[2-[[1-[2-(4-methylpiperazin-1-yl)-2-oxo-ethyl]pyrazol-4-yl]amino]-[1,2,4]triazolo[1,5-a]pyridin-8-yl]-3,8-diazabicyclo[3.2.1]octan-8-yl]sulfonyl]acetonitrile], the half-inhibitory concentration (IC50) in test [1] was 81.5 nM.

As to `CSCCN1CCN(C(=O)Cn2cc(Nc3nc4c(N5CC6CCC(C5)N6C(=O)C5CC(C(F)(F)F)C5)cccn4n3)cn2)CC1` (centres unmarked) [Example 197, 1-[4-(2-methylsulfanylethyl)-piperazin-1-yl]-2-[4-[[8-[8-[3-(trifluoromethyl)-cyclobutanecarbonyl]-3,8-diazabicyclo[3.2.1]octan-3-yl]-[1,2,4]triazolo[1,5-a]pyridin-2-yl]amino]pyrazol-1-yl]ethanone], half-maximal inhibition in test [2] (IC50) required 23.1 nM.

Take `CSCCN1CCN(C(=O)Cn2cc(Nc3nc4c(N5CC6CCC(C5)N6C(=O)C5CC(C(F)(F)F)C5)cccn4n3)cn2)CC1` (centres unmarked) [Example 198, 1-[4-(2-methylsulfanylethyl)-piperazin-1-yl]-2-[4-[[8-[8-[3-(trifluoromethyl)-cyclobutanecarbonyl]-3,8-diazabicyclo[3.2.1]octan-3-yl]-[1,2,4]triazolo[1,5-a]pyridin-2-yl]amino]pyrazol-1-yl]ethanone]: in test [2], half-maximal inhibition (IC50) required 33.4 nM.

In test [2], `CN1CCN(C(=O)Cn2cc(Nc3nc4c(N5CC6CCC(C5)N6C(=O)c5cccc(C#N)c5)cccn4n3)cn2)CC1` [Example 199, 3-[3-[2-[[1-[2-(4-methylpiperazin-1-yl)-2-oxo-ethyl]pyrazol-4-yl]amino]-[1,2,4]triazolo[1,5-a]pyridin-8-yl]-3,8-diazabicyclo[3.2.1]octane-8-carbonyl]benzonitrile] came in with a half-maximal inhibitory concentration (IC50) of 91.4 nM.
